Data reported in ChEMBL document CHEMBL1949578, “Inhibitors of acetyltransferase domain of N-acetylglucosamine-1-phosphate-uridyltransferase/glucosamine-1-phosphate-acetyltransferase (GlmU). Part 1: Hit to lead evaluation of a novel arylsulfonamide series” (Bioorg Med Chem Lett, 2012).

By UniProt entry, the sequences of proteins in these tests, tags left out. Where a name states a change or a piece, a line headed by the entry shows the natural chain unless it says otherwise.
UniProt Q97R46: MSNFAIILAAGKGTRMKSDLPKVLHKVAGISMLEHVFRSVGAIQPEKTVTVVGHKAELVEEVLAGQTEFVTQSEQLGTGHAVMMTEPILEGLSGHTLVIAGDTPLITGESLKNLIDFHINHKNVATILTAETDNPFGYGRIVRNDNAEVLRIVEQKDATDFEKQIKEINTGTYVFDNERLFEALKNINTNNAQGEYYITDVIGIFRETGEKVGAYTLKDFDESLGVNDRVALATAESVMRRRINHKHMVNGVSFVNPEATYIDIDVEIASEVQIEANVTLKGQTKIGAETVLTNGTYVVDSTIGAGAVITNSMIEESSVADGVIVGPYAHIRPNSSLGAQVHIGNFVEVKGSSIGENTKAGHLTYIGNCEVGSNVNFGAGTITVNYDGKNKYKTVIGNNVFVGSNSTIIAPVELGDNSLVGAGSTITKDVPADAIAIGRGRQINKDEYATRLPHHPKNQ

Biological target: Bifunctional protein GlmU (Streptococcus pneumoniae serotype 4 (strain ATCC BAA-334 / TIGR4), UniProt Q97R46)
Assay: Inhibition of Streptococcus pneumoniae acetyltransferase activity of GlmU using acetyl-CoA and glucosamine-1-phosphate after 30 mins by Ellman's method

IC50: 110 µM
Structure (SMILES): COc1cc(OC)c(S(=O)(=O)NCc2ccccc2N2CCCCC2)cc1NC(C)=O
